For 3 compounds, IC50 results are on record in US9617266B2, “Imidazopyrimidine derivatives” (Merck Patent GmbH, priority 2013, dated 2017).

The chains behind the UniProt entries cited, without tags or fusion partners.
UniProt Q9P2K8, whole entry, species assumed: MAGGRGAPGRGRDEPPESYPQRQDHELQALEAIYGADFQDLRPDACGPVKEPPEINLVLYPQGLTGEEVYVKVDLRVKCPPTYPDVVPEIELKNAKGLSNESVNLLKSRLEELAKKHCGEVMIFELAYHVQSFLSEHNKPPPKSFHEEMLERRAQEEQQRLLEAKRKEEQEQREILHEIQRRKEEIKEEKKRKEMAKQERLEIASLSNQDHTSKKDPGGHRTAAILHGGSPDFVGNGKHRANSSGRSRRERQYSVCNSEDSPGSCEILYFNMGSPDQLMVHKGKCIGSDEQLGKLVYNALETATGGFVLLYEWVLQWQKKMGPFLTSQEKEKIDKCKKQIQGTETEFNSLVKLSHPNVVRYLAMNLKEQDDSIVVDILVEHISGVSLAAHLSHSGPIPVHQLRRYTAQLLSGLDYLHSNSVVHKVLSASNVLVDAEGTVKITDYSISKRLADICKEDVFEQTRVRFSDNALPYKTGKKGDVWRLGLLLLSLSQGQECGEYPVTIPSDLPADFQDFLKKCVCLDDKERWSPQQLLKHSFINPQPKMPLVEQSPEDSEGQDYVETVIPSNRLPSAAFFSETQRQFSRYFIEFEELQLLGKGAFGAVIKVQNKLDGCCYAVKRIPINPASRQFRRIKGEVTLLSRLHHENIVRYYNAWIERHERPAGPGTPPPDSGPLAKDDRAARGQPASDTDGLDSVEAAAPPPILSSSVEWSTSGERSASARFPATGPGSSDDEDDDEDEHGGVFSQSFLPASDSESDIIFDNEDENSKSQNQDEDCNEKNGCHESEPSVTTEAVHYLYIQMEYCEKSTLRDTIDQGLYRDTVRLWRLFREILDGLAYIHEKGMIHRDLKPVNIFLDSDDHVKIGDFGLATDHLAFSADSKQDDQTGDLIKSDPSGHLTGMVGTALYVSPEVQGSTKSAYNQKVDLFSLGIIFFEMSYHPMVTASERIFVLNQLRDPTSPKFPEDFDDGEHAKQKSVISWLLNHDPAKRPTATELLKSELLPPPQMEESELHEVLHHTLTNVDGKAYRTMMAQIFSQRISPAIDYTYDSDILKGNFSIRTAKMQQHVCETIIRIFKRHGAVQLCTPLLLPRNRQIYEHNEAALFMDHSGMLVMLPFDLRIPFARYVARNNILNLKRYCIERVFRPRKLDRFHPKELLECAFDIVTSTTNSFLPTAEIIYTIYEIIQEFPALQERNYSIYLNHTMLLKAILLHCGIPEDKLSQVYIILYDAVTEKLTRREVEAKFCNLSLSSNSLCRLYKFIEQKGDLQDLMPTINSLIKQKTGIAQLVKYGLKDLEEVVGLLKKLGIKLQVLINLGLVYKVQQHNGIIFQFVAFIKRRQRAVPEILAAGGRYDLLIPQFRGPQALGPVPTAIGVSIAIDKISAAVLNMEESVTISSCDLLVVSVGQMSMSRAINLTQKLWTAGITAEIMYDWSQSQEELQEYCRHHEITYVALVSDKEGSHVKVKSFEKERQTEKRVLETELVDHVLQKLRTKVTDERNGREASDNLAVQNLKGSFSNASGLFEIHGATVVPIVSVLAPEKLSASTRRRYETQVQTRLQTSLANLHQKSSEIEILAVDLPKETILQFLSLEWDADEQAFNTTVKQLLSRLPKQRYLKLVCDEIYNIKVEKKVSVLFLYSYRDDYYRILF

A value given as a limit tells only on which side of the number the result lay.

For the assay, the target named is GCN2 (Homo sapiens, UniProt Q9P2K8). As to the kind of experiment: GCN2 enzyme assay (TR-FRET Lanthascreen, GFP-eIF2alpha phosphorylation). It is filed as biochemical. The following applies: 10 μM ATP, 80 nM GFP-eIF2a substrate, 30 nM GCN2, room temperature. The source says: GCN2: Assay Principle & Conditions
This assay can quantificate the activity of the serin kinase GCN2 (general control non-derepressible-2).
This kinase is involved in the stress metabolism of cells. It is activated upon starvation (amino acid depletion). Its natural substrate is eIF2a (eukaryotic initiation factor 2 alpha subunit), a translation factor, which gets activated (phosphorylated) by GCN2 in case of an amino acid bottleneck in the cells. This in turn leads to a halt of the protein synthesis. Inhibition of GCN2 results in stopping this mechanism: The cell can not stop protein production upon “starvation” stress.
The assay is run in two steps: the enzymatic reaction and the detection step. In the first step GCN2 is incubated with 10 μM ATP and 80 nM of the GFP-labelled substrate elF2alpha at room temperature.
The enzymatic reaction is stopped by addition of EDTA. The amount of phosphorylated elF2alpha is determined by TR-FRET (Lanthascreen): A complex is formed consisting of antibody and GFP labelled phospho-eIF2a, which allows a FRET upon exitation at 340 nm.
Final Concentrations in the Enzymatic Reaction

In general, IC50 refers to the concentration at which inhibition is half-maximal. For the compound `CCOc1ccc(-n2c(N)nc3cnc(Nc4cnn(C5CCN(C)CC5)c4)nc32)cc1` [Compound A7, 9-(4-ethoxyphenyl)-N2-(1-(1-methylpiperidin-4-yl)-1H-pyrazol-4-yl)-9H-purine-2,8-diamine], the half-inhibitory concentration (IC50) was less than 1 µM.

Compound `CCn1cc(Nc2ncc3nc(N)n(-c4cnn(CC)c4)c3n2)cn1` [Compound A8, N^2,9-bis(1-ethyl-1H-pyrazol-4-yl)-9H-purine-2,8-diamine] showed an IC50 of 5 to 10 µM. On to `CCOc1ccc(-n2c(N)nc3cnc(Nc4cnn(CCn5cccn5)c4)nc32)cc1` [Compound A14, 9-(4-ethoxy-phenyl)-N^2-[1-(2-pyrazol-1-yl-ethyl)-1H-pyrazol-4-yl]-9H-purine-2,8-diamine], for which the half-inhibitory concentration (IC50) was 5 to 10 µM.
